Experimental data: ChEMBL document CHEMBL1134245, “Two novel and potent 3-[(o-methoxyphenyl)piperazinylethyl]-5-phenylthien” (Bioorg Med Chem Lett, 2001)

By UniProt entry, the sequences of proteins in these tests, tags left out.
UniProt P35368, whole entry: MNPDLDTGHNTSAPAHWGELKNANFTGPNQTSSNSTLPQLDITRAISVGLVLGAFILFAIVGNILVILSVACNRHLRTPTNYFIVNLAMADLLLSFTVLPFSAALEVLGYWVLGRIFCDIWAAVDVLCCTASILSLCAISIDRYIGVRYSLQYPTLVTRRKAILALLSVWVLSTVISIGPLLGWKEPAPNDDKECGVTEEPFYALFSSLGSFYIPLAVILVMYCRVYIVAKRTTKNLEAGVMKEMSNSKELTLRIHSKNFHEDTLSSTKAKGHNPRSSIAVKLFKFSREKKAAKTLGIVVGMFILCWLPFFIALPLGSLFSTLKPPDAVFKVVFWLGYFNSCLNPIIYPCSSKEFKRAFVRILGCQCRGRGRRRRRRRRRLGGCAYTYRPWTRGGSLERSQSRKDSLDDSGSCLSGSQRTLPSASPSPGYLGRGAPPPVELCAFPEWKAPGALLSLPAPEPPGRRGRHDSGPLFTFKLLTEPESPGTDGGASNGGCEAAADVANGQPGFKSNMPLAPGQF

Target: Alpha-1B adrenergic receptor (Homo sapiens, UniProt P35368)
Test: Binding affinity towards human Alpha-1B adrenergic receptor

Ki [nM]	Structure (SMILES)
4.47	COc1ccccc1N1CCN(CCn2c(=O)c3c(-c4ccccc4)csc3n(C)c2=O)CC1
165	CC(CN1CCN(c2cc(F)c(F)cc2F)CC1)N1C(=O)CC2(CCCC2)CC1=O (single isomer, unassigned)
